Ab-14 light chain CDR variants: yeast mating affinities

All variants were tested on one target, the spike HR2 peptide PDVDLGDISGINAS (SARS-CoV-2).

Ab-14 is the parent antibody, in scFv form: VH, then three GGGGS repeats, then VL. The heavy chain is unchanged in all variants.
VH: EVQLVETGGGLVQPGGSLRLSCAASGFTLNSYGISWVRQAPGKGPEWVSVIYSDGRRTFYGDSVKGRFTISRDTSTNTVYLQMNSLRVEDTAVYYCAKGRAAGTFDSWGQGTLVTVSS
VL: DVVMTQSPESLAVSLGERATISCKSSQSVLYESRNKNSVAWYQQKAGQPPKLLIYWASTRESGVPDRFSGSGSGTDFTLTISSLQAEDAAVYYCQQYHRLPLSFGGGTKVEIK

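The starting antibody came from a phage panning campaign against this peptide. Designed CDR sequences, proposed from the first random library and measured here. Their group label is 14L_GP_Gen (GP: Gaussian process model; Gen: genetic algorithm; a sequence that several methods proposed may carry one label only). In AlphaSeq, yeast of one mating type display the scFv and yeast of the other type display the target. The frequency of each diploid, read from paired DNA barcodes, reflects how well the two displayed proteins bind. Scores were corrected for input abundance and mapped to Kd with protein pairs of known affinity run in the same pool. The assay was run in six technical replicates.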

Variants are written as CDR1, CDR2 and CDR3 of the light chain (limits as in the source). Parent: KSSQSVLYESRNKNSVA, WASTRES, QQYHRLPLS.
Affinities are written as log10 Kd with Kd in nM; a lower number is a better binder.
Replicates are averaged; those with no signal do not enter the mean.
A sequence measured in both rounds can read differently, since the two assays cover different ranges.

CDR-L1,CDR-L2,CDR-L3,"replicates, log10 nM","log10 Kd (nM), mean",signal with controls
KLPQSDLYESRNKNSVA,QASTRES,QQYHRLPLS,-0.30 / -0.17 / -0.43 / -0.41 / -0.32 / -0.30,-0.32,1/18 (1.94)
KLPQSVLYESRNKNSVA,EASTRES,QQYHRLPLS,-0.13 / -0.20 / -0.12 / -0.02 / -0.08 / -0.19,-0.12,1/18 (2.27)
KLSQSELYESRNKNSVA,GASTRMS,QQYHRLPLS,0.38 / 0.27 / 0.02 / 0.10 / 0.41 / 0.45,0.27,0/18
KISQSVLYESRNKNAVA,EASTRES,QQYHRLPLS,-0.38 / -0.85 / 0.02 / -0.63 / -0.78 / 1.21,-0.23,0/18
KFSQSVLYESRNSNSVA,EASTRES,QQYHRLPLS,-0.05 / 0.08 / -0.25 / -0.10 / -0.09 / 0.11,-0.05,1/18 (2.25)
KLSQSVGYESRNKNSVA,NASTRMS,QQYHRLPLS,0.25 / 0.06 / -0.01 / 0.04 / 0.02 / 0.20,0.09,4/18 (3.34)
KLSQSVLYESRNKNSVA,NASTREQ,QDYHRLPLS,0.44 / 0.07 / 0.19 / -0.07 / -0.14 / 0.03,0.08,0/18
KFSQSYLYESRNKNSVA,NASTRLS,QQYHRLPLS,-0.24 / -0.23 / -0.23 / -0.21 / -0.38 / -0.14,-0.24,0/18
KLSQSDLYESRMKNSVA,NASQRES,QQYHRLPLS,0.57 / 0.16 / 0.26 / 0.05 / 0.10 / 0.38,0.25,1/18 (2.50)
KLPQSYLYESRNKNSVA,QASTRES,QQYHRLPLS,0.90 / 0.84 / 1.28 / 0.35 / 0.81 / 0.83,0.83,0/18
KLPQSWLYESRNKNSVA,SASQRES,QQYHRLPLS,-0.14 / -0.21 / -0.07 / -0.25 / -0.22 / -0.16,-0.17,0/18
KLQQSVLYESRNKNSVA,NASQREE,QQYHRLPLS,0.07 / -0.05 / -0.11 / -0.17 / -0.14 / -0.04,-0.08,1/18 (2.37)
KLSQSQLYESRVKNSVA,NASTRES,QQYHRLPLS,-0.21 / 0.01 / -0.31 / -0.38 / -0.21 / -0.05,-0.19,0/18
KLSQSMLYESRNKNSVA,NASQRMS,QQYHRLPLS,-0.16 / -0.04 / -0.18 / -0.38 / -0.19 / -0.02,-0.16,1/18 (2.30)
KLSQSYLYESRNKNSVA,HASTRLS,QQYHRLPLS,1.06 / 0.54 / 0.66 / 0.46 / 0.89 / 0.67,0.71,0/18
KLSQSDLYESRAKNSVA,EASTRES,QQYHRLPLS,0.45 / -0.11 / 0.08 / -0.26 / -0.08 / 0.17,0.04,2/18 (3.06)
KLSQSVPYESRNKNSVA,NASYRES,QQYHRLPLS,-0.05 / 0.06 / -0.15 / -0.03 / -0.04 / 0.00,-0.04,1/18 (2.89)
KLSQSELYESRNKNSVA,NASTREH,QQYHRLPLS,-0.18 / -0.39 / -0.21 / -0.14 / -0.49 / -0.24,-0.28,0/18
KSSQSEPYESRNKNSVA,EASTRES,QQYHRLPLS,0.32 / 0.31 / 0.14 / 0.11 / 0.14 / 0.56,0.26,0/18
KLQQSELYESRNKNSVA,DASTRES,QQYHRLPLS,-0.07 / 0.17 / 0.06 / -0.40 / -0.20 / 0.04,-0.07,0/18
KLSQSELYESRNKNSVA,SASQRES,QQYHRLPLS,-0.10 / -0.24 / -0.22 / -0.22 / -0.47 / 0.06,-0.20,0/18
KLEQSTLYESRNKNSVA,NASTRMS,QQYHRLPLS,0.04 / -0.08 / -0.20 / -0.08 / -0.20 / 0.15,-0.06,1/18 (2.53)
KLSQSVLYESRNKNSVA,GASTRMS,QQYHRLPLS,0.39 / 0.24 / 0.01 / 0.24 / 0.56 / 0.69,0.36,0/18
KLPQSVLYESRNKNSVA,NASTRLS,QQYHRLPLS,-0.26 / -0.31 / -0.17 / -0.37 / -0.32 / -0.10,-0.26,3/18 (3.75)
KLSQSVLYESRNKNSVA,EASLRES,QQYHRLPLS,-0.07 / -0.24 / -0.40 / -0.45 / -0.32 / -0.29,-0.29,1/18 (3.05)
KLQQSKLYESRNKNSVA,NASTRES,QQYHRLPLS,-0.05 / -0.13 / -0.19 / -0.15 / -0.02 / -0.02,-0.09,0/18
KLSQSHLYESRNKNSVA,NASTRES,QQYHRLPLS,0.07 / 0.02 / 0.30 / -0.18 / -0.06 / -0.08,0.01,2/18 (2.68)
KLQQSWLYESRNKNSVA,DASTRLS,QQYHRLPLS,0.23 / -0.14 / -0.06 / -0.24 / 0.08 / 0.02,-0.02,0/18
KLSQSVLYESRNKNSVA,NGSTRES,QDYHRLPLS,0.40 / 0.33 / -0.06 / 0.00 / -0.20 / 0.35,0.14,1/18 (1.36)
KLSYSWLYESRNKNSVA,EASTRES,QQYHRLPLS,0.19 / -0.07 / -0.03 / -0.03 / -0.37 / -0.22,-0.09,0/18
KLKQSDLYESRNKNSVA,EASTRES,QQYHRLPLS,-0.02 / -0.04 / -0.14 / -0.05 / -0.01 / 0.09,-0.03,0/18
KVEQSWLYESRNKNAVA,NASQRES,QQYHRLPLS,-0.02 / -0.08 / -0.32 / -0.62 / -0.39 / -0.04,-0.25,0/18
KMEQSELYESRNKNSVA,NASTRES,QQYHRLPLS,-0.13 / 0.29 / -0.10 / -0.41 / 0.02 / -0.14,-0.08,0/18
KVSQSVLYEMRNKNSVA,NASTRES,QQYHRLPLS,0.31 / 0.03 / 0.00 / -0.11 / -0.01 / 0.30,0.09,0/18
KLSQSELYESRNKNNVA,EASTRES,QQYHRLPLS,-0.56 / -0.35 / -0.53 / -0.36 / -0.18 / -0.39,-0.40,1/18 (1.46)
KLSQSVLYESRNKNNVA,QASTRES,QQYHRLPLS,-0.30 / -0.61 / -0.52 / -0.59 / -0.48 / -0.64,-0.52,0/18
KLPQSGLYESRNKNSVA,EASTRES,QQYHRLPLS,0.79 / 0.93 / 0.76 / 0.64 / 1.20 / 1.32,0.94,0/18
KLEQSQEYESRNKNSVA,NASTRES,QQYHRLPLS,-0.31 / -0.76 / -0.21 / -0.80 / -0.37 / -0.36,-0.47,0/18
KLSQSVLYESMNKNSVA,NASTRMS,QQYHRLPLS,0.05 / 0.05 / -0.01 / -0.13 / -0.06 / 0.18,0.01,2/18 (2.65)
KVSGSMLYESRNKNSVA,DASTRES,QQYHRLPLS,-0.40 / -0.38 / -0.30 / -0.74 / -0.46 / -0.47,-0.46,1/18 (2.28)
KLYQSVLYESRNKNSVA,HASTRES,QQYHRLPLS,0.31 / 0.18 / 0.22 / 0.04 / 0.42 / 0.09,0.21,1/18 (2.32)
KLMQSDLYESRNKNSVA,NASTRES,QQYHRLPLS,0.01 / -0.07 / -0.08 / -0.15 / -0.17 / 0.10,-0.06,1/18 (1.50)
KLSQSNLYESRMKNSVA,NASQRES,QQYHRLPLS,-0.05 / -0.18 / -0.12 / -0.33 / -0.30 / -0.09,-0.18,0/18
KFSQSFLYESRNKNSVA,EASTRES,QQYHRLPLS,-0.13 / -0.19 / -0.34 / -0.33 / -0.30 / -0.19,-0.25,0/18
KLSQSDLYESRNKNNVA,HASTRES,QQYHRLPLS,-0.07 / -0.18 / -0.44 / -0.35 / -0.32 / -0.14,-0.25,0/18
KLSESELYESRNKNSVA,NASTRLS,QQYHRLPLS,-0.17 / -0.24 / -0.27 / -0.35 / -0.13 / -0.15,-0.22,0/18
KLSQSELYESRNFNSVA,NASTRES,QQYHRLPLS,0.36 / 0.44 / 0.30 / 0.18 / -0.01 / 0.47,0.29,1/18 (2.38)
KSSQSEPYESRNKNSVA,NASTRES,QQYHRLPLS,0.13 / 0.10 / 0.08 / 0.00 / -0.01 / 0.15,0.08,2/18 (2.63)
KLQQSGLYESRNKNSVA,NASTRES,QQYHRLPLS,0.19 / -0.08 / -0.14 / -0.19 / -0.12 / 0.19,-0.02,1/18 (3.03)
KQSQSVLYESRNKNSVA,NASQRES,QQYHRLPLS,0.68 / 0.42 / 0.98 / 0.05 / 0.60 / 0.36,0.51,0/18
KLSQSVLMESRNKNSVA,NASTRMS,QQYHRLPLS,0.12 / -0.04 / -0.01 / 0.09 / -0.21 / -0.19,-0.04,0/18

Extract of 8 entries:

CDR-L1	CDR-L2	CDR-L3	replicates, log10 nM	log10 Kd (nM), mean	signal with controls
KLSQSELYESRNKNSVA	NASTREH	QQYHRLPLS	-0.18 / -0.39 / -0.21 / -0.14 / -0.49 / -0.24	-0.28	0/18
KFSQSYLYESRNKNSVA	NASTRLS	QQYHRLPLS	-0.24 / -0.23 / -0.23 / -0.21 / -0.38 / -0.14	-0.24	0/18
KLSQSELYESRNFNSVA	NASTRES	QQYHRLPLS	0.36 / 0.44 / 0.30 / 0.18 / -0.01 / 0.47	0.29	1/18 (2.38)
KLQQSWLYESRNKNSVA	DASTRLS	QQYHRLPLS	0.23 / -0.14 / -0.06 / -0.24 / 0.08 / 0.02	-0.02	0/18
KLSQSVLYESRNKNSVA	NGSTRES	QDYHRLPLS	0.40 / 0.33 / -0.06 / 0.00 / -0.20 / 0.35	0.14	1/18 (1.36)
KLSQSELYESRNKNSVA	GASTRMS	QQYHRLPLS	0.38 / 0.27 / 0.02 / 0.10 / 0.41 / 0.45	0.27	0/18
KVSQSVLYEMRNKNSVA	NASTRES	QQYHRLPLS	0.31 / 0.03 / 0.00 / -0.11 / -0.01 / 0.30	0.09	0/18
KLSYSWLYESRNKNSVA	EASTRES	QQYHRLPLS	0.19 / -0.07 / -0.03 / -0.03 / -0.37 / -0.22	-0.09	0/18

The parent sequence was in this pool as ten entries: three were never detected, three once, and four in most replicates, with averages from 0.34 to 2.37.
Three control strains display no target. For all light chain designs, 4% of the pairings with them gave a signal, with a median of 2.64 and one signal in twenty below 1.59, so weak values seen in few replicates may be background. For each scFv, signals with the empty controls are counted beside the result, with their mean in brackets.
The authors' rule: three or more of the six replicates give a measured affinity, fewer mean a poor binder.

Values reported by Li et al. 2023, doi:10.1038/s41467-023-39022-2 (FLAb copy).